Test results as given in patent US20190375821A1 (IBENTRUS, published 2019).

Sequences of proteins named here, by UniProt entry; tags and fusion partners are left off. A line that says so, or that is headed by a name, gives the form on record, which may keep a tag or linker.
UniProt P15692, other isoform, or with tags, fused parts or gaps limits assumed: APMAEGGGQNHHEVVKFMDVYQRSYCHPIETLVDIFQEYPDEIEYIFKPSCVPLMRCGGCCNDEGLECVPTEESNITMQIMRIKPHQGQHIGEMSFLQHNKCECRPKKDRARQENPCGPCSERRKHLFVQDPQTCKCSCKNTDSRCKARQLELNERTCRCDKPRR

Molecular target: T1, VEGF165 (UniProt P15692-4 27-191)
T1 construct: also called VEGFA
Test: ELISA, VEGF165

Kd: 150 pM
B1: Ranibizumab (Fab, V domains shown)
VH: EVQLVESGGGLVQPGGSLRLSCAASGYDFTHYGMNWVRQAPGKGLEWVGWINTYTGEPTYAADFKRRFTFSLDTSKSTAYLQMNSLRAEDTAVYYCAKYPYYYGTSHWYFDVWGQGTLVTVSS
VL: DIQLTQSPSSLSASVGDRVTITCSASQDISNYLNWYQQKPGKAPKVLIYFTSSLHSGVPSRFSGSGSGTDFTLTISSLQPEDFATYYCQQYSTVPWTFGQGTKVEIKR
